From ChEMBL document CHEMBL5113403

The chains behind the UniProt entries cited, without tags or fusion partners.
UniProt P05177, whole entry: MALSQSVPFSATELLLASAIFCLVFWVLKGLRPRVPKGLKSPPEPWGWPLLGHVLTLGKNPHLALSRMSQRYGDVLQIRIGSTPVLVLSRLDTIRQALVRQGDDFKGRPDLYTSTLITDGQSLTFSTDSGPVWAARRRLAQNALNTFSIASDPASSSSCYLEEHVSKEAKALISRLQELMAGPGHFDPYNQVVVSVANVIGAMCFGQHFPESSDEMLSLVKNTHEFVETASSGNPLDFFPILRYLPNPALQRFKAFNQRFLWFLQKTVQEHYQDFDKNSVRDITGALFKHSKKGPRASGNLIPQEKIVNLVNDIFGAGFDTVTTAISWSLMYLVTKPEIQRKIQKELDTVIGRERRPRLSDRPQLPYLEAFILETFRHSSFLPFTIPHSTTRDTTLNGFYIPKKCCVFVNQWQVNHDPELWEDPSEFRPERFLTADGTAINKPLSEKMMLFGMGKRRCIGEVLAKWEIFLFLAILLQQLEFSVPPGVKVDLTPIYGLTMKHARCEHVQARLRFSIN

Biological target: CYP1A2 (Homo sapiens, UniProt P05177)
Experiment: Inhibition of CYP1A2 in human liver microsomes at 10 uM preincubated for 10 mins followed by addition of NADPH-regenerating system and measured after 15 mins by LC-MS/MS analysis relative to control
Format: ADME, Microsome
Settings: time 25 min

inhibition at 0.25 h, 10 µM: 89.2%
Compound: O=c1cc(-c2ccccc2)oc2c1ccc1ccccc12 [ALPHA-NAPHTHOFLAVONE]
